Test results published in IntAct's records for PubMed 16352593.

B1: Myc proto-oncogene protein (Homo sapiens), P01106 (parent)
chain: MDFFRVVENQQPPATMPLNVSFTNRNYDLDYDSVQPYFYCDEEENFYQQQQQSELQPPAPSEDIWKKFELLPTPPLSPSRRSGLCSPSYVAVTPFSLRGDNDGGGGSFSTADQLEMVTELLGGDMVNQSFICDPDDETFIKNIIIQDCMWSGFSAAAKLVSEKLASYQAARKDSGSPNPARGHSVCSTSSLYLQDLSAAASECIDPSVVFPYPLNDSSSPKSCASQDSSAFSPSSDSLLSSTESSPQGSPEPLVLHEETPPTTSSDSEEEQEDEEEIDVVSVEKRQAPGKRSESGSPSAGGHSKPPHSPLVLKRCHVSTHQHNYAAPPSTRKDYPAAKRVKLDSVRVLRQISNNRKCTSPRSSDTEENVKRRTHNVLERQRRNELKRSFFALRDQIPELENNEKAPKVVILKKATAYILSVQAEEQKLISEEDLLRKRREQLKHKLEQLRNSCA
partner: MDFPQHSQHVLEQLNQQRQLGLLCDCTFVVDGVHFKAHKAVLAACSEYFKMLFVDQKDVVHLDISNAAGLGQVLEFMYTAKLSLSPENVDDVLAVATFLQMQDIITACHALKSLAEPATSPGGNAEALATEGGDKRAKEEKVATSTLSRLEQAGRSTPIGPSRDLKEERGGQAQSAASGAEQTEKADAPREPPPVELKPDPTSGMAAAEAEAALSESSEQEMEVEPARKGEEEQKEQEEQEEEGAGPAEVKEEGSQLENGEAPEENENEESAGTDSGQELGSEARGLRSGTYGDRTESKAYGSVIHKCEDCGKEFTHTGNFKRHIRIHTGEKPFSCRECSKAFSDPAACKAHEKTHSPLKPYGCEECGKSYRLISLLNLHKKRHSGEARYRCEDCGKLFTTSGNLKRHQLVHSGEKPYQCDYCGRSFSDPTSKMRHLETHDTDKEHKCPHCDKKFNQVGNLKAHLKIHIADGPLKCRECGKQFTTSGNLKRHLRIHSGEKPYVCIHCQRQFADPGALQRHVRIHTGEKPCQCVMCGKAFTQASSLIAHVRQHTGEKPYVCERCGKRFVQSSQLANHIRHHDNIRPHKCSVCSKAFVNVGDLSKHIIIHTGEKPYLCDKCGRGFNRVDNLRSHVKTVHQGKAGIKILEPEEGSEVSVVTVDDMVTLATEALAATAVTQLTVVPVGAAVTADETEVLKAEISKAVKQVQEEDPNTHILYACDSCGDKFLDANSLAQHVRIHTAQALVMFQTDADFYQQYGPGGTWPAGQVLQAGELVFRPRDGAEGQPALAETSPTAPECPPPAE

Variants of: B1
Conditions: with zbt17_human ZBTB17, Q13105

Row | effect of a mutation on the interaction | Variant
1 | decreasing interaction | V409D
